According to US4560692A, “4-Piperidino-2-phenylquinolines” (Hoffmann-La Roche Inc., priority 1984, dated 1985):

Biological target: ^3 H-Diazepam binding, rat brain cortical fragments
Assay: ^3 H-Diazepam binding assay
Details: standard drugs, inhibition of ^3 H-Diazepam binding by 50%
Procedure: Rat brain cortical fragments are prepared and the binding procedures performed as described by Mohler and Okada (Life Sciences, 20, 2101, 1977) except that Tris buffer is substituted for Krebs buffer. Drugs are assayed in triplicate. Radioactivity is measured by liquid scintillation counting.

CN1C(=O)CN=C(c2ccccc2F)c2cc([N+](=O)[O-])ccc21 [Flunitrazepam, reference compound]
IC50: 1.8 nM
